Measured values published in patent US20260382581A1, “COMPOSITIONS COMPRISING CYTISINE IN THE TREATMENT AND/OR PREVENTION OF ADDICTION IN SUBJECTS IN NEED THEREOF” (published 2026).

System: adult smokers
Assay: ORCA-2: Effect Modifier Analyses of continuous abstinence
Details: both treatment durations
Source text: Analyses for the binary primary and secondary outcomes were based on exact analyses 2×2 tables stratified by clinical site. Missed assessments of primary and secondary endpoints were imputed as non-success, thereby enabling analyses following the intent-to-treat principle. The Hochberg procedure was used to control for multiplicity (6). A target sample of 750 participants (n=250 per arm) was computed and verified using simulations to provide 96% power for specifications of an overall one-sided 0.025 type I error probability and success probabilities of 7% for placebo and 19% for cytisinicline. Sensitivity analyses included assessments of effect modification related to subsets defined by baseline attributes using logistic and cumulative logit models. Longitudinal analyses used Mixed Model for Repeated Measures methodology (7). Safety analyses included all randomized participants who received at least one dose of study drug. Analyses were conducted by BB.
FIGS. 36 and 37 compare the effectiveness of cytisinicline vs. placebo for the two primary outcomes in subgroups defined by baseline characteristics. […] These EMAs are exploratory and there is no adjustment for multiplicity.

Q: For `O=c1cccc2n1C[C@@H]1CNC[C@H]2C1`, which “effectiveness in non-White participants” value is on record?
A: less effective in non-White participants
